# Yeast mating assay B: variants of the scFv Ab-14

Target peptide (SARS-CoV-2 spike, HR2 region): PDVDLGDISGINAS

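These sequences belong to a second round, designed from the earlier measurements on random variants of the parent. Their group label is 14H_GP_Gen (GP: Gaussian process model; Gen: genetic algorithm; a sequence that several methods proposed may carry one label only). AlphaSeq pools MATa yeast showing the antibodies with MATalpha yeast showing the peptide. Mating (16 h, 30 °C) was followed by selection of diploids and sequencing of their barcodes. The ratio of observed to expected reads was calibrated, replicate by replicate, on BCL2-family standards whose Kd was known from biolayer interferometry. The assay was run in six technical replicates.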

Ab-14 is the parent antibody, in scFv form: VH, then a (GGGGS)3 linker, then VL. The light chain is unchanged in all variants.
VH: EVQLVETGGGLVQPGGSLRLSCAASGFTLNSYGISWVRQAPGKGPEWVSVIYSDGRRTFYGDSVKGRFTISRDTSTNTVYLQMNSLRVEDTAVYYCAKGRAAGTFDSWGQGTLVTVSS
VL: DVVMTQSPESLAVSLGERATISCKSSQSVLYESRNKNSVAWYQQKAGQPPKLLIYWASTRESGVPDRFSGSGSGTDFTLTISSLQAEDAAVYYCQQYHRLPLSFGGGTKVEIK

The whole VH of each variant is written out.
Scale: log10 of Kd in nM, estimated from mating counts; low values are strong binders.
Averages over replicates are reported, and they cover detected replicates only.
Three control strains display no target. For all heavy chain designs, 1% of the pairings with them gave a signal, with a median of 2.08 and one signal in twenty below 0.84, so weak values seen in few replicates may be background. Also given: how often the same scFv was detected with the empty control strains, with their mean in brackets.
Values of this round are not directly comparable with the first-round values of the same sequences.
The parent sequence was in this pool as ten entries: three were never detected, three once, and four in most replicates, with averages from 0.34 to 2.37.
The authors averaged sequences with at least three values out of six and counted those with two or fewer as poor binders.

| # | VH | log10 Kd (nM) by replicate | mean log10 Kd (nM) | signal with controls |
|---|---|---|---|---|
| 1 | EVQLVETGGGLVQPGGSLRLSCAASGFSLNSYGISWVRQAPGKGPEWVSVIYSDGRRTFYGDSVKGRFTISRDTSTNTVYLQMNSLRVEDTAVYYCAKGREAGTFDRWGQGTLVTVSS | 0.26 0.37 0.68 0.23 0.66 1.15 | 0.56 | 0/18 |
| 2 | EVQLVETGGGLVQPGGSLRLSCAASGFNLNSYGISWVRQAPGKGPEWVSVIYSDGRRTFYADKVKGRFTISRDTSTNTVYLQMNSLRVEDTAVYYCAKGREAGTFDSWGQGTLVTVSS | 0.16 -0.33 -0.22 0.10 0.20 0.53 | 0.07 | 0/18 |
| 3 | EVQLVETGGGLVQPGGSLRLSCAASGFSLNSYGISWVRQAPGKGPEWVSVIYSDGRRTFYGDSVKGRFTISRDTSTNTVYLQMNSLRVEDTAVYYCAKGSTAGTFDVWGQGTLVTVSS | 0.64 -0.34 -0.51 -0.11 -0.21 0.59 | 0.01 | 0/18 |
| 4 | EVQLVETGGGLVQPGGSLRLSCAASGFNLNSYGISWVRQAPGKGPEWVSVIYSDGRRTFYGDRVKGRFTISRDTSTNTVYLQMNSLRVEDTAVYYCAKGKTAGTFDSWGQGTLVTVSS | 0.92 2.09 0.52 0.96 1.12 1.19 | 1.13 | 0/18 |
| 5 | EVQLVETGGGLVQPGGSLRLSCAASGFELNEYGISWVRQAPGKGPEWVSVIYSDGRRTFYTDSVKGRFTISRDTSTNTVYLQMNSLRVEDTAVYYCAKGKAAGTFDSWGQGTLVTVSS | 0.31 0.39 1.48 1.01 0.36 -0.25 | 0.55 | 0/18 |
| 6 | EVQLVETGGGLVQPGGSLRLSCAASGFELNNYGISWVRQAPGKGPEWVSVIYSDGRRTFYGDSVKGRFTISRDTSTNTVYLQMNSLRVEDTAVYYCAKGEAAGTFDSWGQGTLVTVSS | 0.96 0.81 0.84 0.49 0.53 0.66 | 0.72 | 1/18 (3.12) |
| 7 | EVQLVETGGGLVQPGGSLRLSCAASGFSLNEYGISWVRQAPGKGPEWVSVIYSDGKRTFYGDSVKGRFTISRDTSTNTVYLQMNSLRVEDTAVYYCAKGRQAGTFDSWGQGTLVTVSS | 0.18 0.12 -0.01 0.37 0.02 0.03 | 0.12 | 0/18 |
| 8 | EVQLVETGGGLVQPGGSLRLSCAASGFDLNSYGISWVRQAPGKGPEWVSVIYSDGRRTFYDDRVKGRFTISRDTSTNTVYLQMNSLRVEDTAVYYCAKGRTAGTFDSWGQGTLVTVSS | 0.53 0.11 -0.01 -0.22 0.33 0.57 | 0.22 | 1/18 (2.24) |
| 9 | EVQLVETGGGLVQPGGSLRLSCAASGFTLNSYGISWVRQAPGKGPEWVSVIYADGRRTFYGDSVKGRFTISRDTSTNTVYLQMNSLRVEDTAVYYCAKGWAAGTFDTWGQGTLVTVSS | 0.02 0.05 0.13 0.02 0.27 0.51 | 0.17 | 1/18 (1.61) |
| 10 | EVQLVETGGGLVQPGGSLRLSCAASGFELNSYGISWVRQAPGKGPEWVSVIYSDGRRTFYSDDVKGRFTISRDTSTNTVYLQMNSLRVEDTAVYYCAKGRTAGTFDSWGQGTLVTVSS | -0.02 -0.15 -0.60 -0.50 0.10 -0.20 | -0.23 | 1/18 (1.98) |
| 11 | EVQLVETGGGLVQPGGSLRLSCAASGFDLNSYGISWVRQAPGKGPEWVSVIYSDGRRTFYSDSVKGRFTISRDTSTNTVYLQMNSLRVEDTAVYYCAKGQTAGTFDSWGQGTLVTVSS | 0.25 -0.11 -0.17 -0.18 -0.10 0.29 | 0.00 | 0/18 |
| 12 | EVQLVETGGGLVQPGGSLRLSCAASGFGLNSYGISWVRQAPGKGPEWVSVIYSDGRRTFYIDSVKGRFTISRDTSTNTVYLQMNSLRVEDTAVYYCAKGQTAGTFDSWGQGTLVTVSS | 0.77 0.69 0.35 0.30 0.13 0.67 | 0.49 | 0/18 |
| 13 | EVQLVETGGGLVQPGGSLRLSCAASGFDLNSYGISWVRQAPGKGPEWVSVIYSDGKRTFYSDSVKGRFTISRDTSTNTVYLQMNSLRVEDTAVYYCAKGKAAGTFDSWGQGTLVTVSS | 0.14 0.37 0.10 0.20 0.46 0.76 | 0.34 | 1/18 (1.78) |
| 14 | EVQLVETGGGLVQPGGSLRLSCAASGFGLNEYGISWVRQAPGKGPEWVSVIYSDGRRTFYADSVKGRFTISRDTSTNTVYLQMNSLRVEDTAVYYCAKGKAAGTFDSWGQGTLVTVSS | -0.39 0.14 0.05 -0.81 -1.16 0.13 | -0.34 | 0/18 |
| 15 | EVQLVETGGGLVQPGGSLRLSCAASGFSLNSYGISWVRQAPGKGPEWVSVIYADGRRTFYGDSVKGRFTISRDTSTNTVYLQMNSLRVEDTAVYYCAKGKAAGTFDLWGQGTLVTVSS | 0.05 -0.59 -1.47 2.23 -0.46 -0.15 | -0.06 | 0/18 |
| 16 | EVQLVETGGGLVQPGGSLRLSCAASGFSLNSYGISWVRQAPGKGPEWVSVIYSDGRRTFYGDSVKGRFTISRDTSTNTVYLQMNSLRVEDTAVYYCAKGWAAGTFDTWGQGTLVTVSS | 0.81 0.47 -0.07 0.42 0.64 1.19 | 0.58 | 0/18 |
| 17 | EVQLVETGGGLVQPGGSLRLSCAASGFDLNTYGISWVRQAPGKGPEWVSVIYSDGMRTFYGDSVKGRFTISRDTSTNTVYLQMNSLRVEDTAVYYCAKGRTAGTFDSWGQGTLVTVSS | 0.07 0.07 0.64 0.22 -0.12 1.19 | 0.34 | 0/18 |
| 18 | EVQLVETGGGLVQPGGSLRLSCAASGFSLNSYGISWVRQAPGKGPEWVSVIYADGRRTFYGDSVKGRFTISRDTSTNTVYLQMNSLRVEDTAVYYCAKGKAAGTFDVWGQGTLVTVSS | 1.69 1.17 0.92 1.20 1.33 0.92 | 1.21 | 0/18 |
| 19 | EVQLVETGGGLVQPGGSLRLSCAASGFSLNEYGISWVRQAPGKGPEWVSVIYSDGRRTFYGDSVKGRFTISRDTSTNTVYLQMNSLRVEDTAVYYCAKGKAAGTFDWWGQGTLVTVSS | -0.04 0.17 0.32 0.10 0.11 -0.11 | 0.09 | 1/18 (1.53) |

Extract of 2 entries:

VH,log10 Kd (nM) by replicate,mean log10 Kd (nM),signal with controls
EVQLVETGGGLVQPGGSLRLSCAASGFSLNEYGISWVRQAPGKGPEWVSVIYSDGRRTFYGDSVKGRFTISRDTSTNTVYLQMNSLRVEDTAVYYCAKGKAAGTFDWWGQGTLVTVSS,-0.04 0.17 0.32 0.10 0.11 -0.11,0.09,1/18 (1.53)
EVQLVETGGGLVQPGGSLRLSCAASGFSLNSYGISWVRQAPGKGPEWVSVIYSDGRRTFYGDSVKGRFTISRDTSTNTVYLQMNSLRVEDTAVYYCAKGWAAGTFDTWGQGTLVTVSS,0.81 0.47 -0.07 0.42 0.64 1.19,0.58,0/18

Source: Li et al. 2023 (doi:10.1038/s41467-023-39022-2), MIT Lincoln Laboratory and A-Alpha Bio; data file from the FLAb repository.